Experimental data: paper PMC3288053 (PLoS ONE, 2012)

Protein sequences, listed by entry. Tags and fused reporters are not part of them. Residues count along the entry.
UniProt P37231, 230-505: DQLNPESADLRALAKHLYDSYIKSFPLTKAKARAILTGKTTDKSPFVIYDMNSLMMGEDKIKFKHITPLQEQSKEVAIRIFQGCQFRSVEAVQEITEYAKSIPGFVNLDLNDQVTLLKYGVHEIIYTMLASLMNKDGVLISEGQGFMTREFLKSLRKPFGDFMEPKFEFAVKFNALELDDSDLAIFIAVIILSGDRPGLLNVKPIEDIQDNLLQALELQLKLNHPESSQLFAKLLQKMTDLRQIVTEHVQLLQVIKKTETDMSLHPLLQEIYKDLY

Molecular target: T1, PPARγ-LBD/SRC1_613–773 interaction (Homo sapiens, UniProt P37231)
T1 construct: pET15b-PPARγ-LBD202–477; His-tag (N); made in house; host or cells: E. coli BL21 (DE3)
Test: SPR SRC1 recruitment assay
Format: binding
Settings: 1 µM PPARγ-LBD incubated with compound 1 hour

SMILES: CN(CCOc1ccc(CC2SC(=O)NC2=O)cc1)c1ccccn1 (stereo not shown) [rosiglitazone, reference compound]
- effect on interaction between PPARγ-LBD and SRC1: greatly enhanced
